Reported intrinsic clearance values for industrial, environmental and drug-like chemicals

Source: data files of OPERA 2.9 (Mansouri et al.), github.com/kmansouri/OPERA.

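The OPERA project collected these measurements from public sources as training and test data for property models. The files give a single number for a compound and property, which may rest on several reports. Conditions of the individual experiments are not part of the data. Where a salt, mixture or single isomer is drawn, the source does not say that exactly this form was tested. Some entries may be limits or estimates that an upstream database listed as plain numbers.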

Intrinsic clearance (human, µL/min per 10^6 hepatocytes): higher is faster turnover, and 0 stands for none detected.

The entry for Nc1ccc(Cl)cc1 lists hepatic Clint 0 µL/min/10^6 cells. For CS/C(C)=N/OC(=O)N(C)SN(C)C(=O)O/N=C(\C)SC the data give hepatic Clint 839 µL/min/10^6 cells. CCCCCCCCCC[N+](C)(C)CCCCCCCCCC.[Cl-] is reported with hepatic Clint 18.65 µL/min/10^6 cells. Listed for CC(C)NC(=O)N1CC(=O)N(c2cc(Cl)cc(Cl)c2)C1=O: hepatic Clint 11.7 µL/min/10^6 cells.

Listed for CCC(C)Nc1c([N+](=O)[O-])cc(C(C)(C)C)cc1[N+](=O)[O-] (stereo not given): hepatic Clint 31.35 µL/min/10^6 cells. Listed for CCN(CC)CCN1C(=O)[C@@](O)(c2ccccc2Cl)c2c1cc(C(N)=O)cc2C(F)(F)F: hepatic Clint 13.18 µL/min/10^6 cells. For CCC(C)(C)c1ccc(O)cc1 the data give hepatic Clint 20.96 µL/min/10^6 cells. The entry for COc1cc2c(c3oc(=O)c4c(c13)CCC4=O)[C@@H]1C=CO[C@@H]1O2 lists hepatic Clint 3.49 µL/min/10^6 cells.

COP(=S)(OC)Oc1ccc(SC)c(C)c1 is reported with hepatic Clint 87.2 µL/min/10^6 cells. For O=c1[nH]c2ccccc2n1CCCN1CCC(n2c(=O)[nH]c3cc(Cl)ccc32)CC1 the data give hepatic Clint 19.08 µL/min/10^6 cells. Listed for CC(C)N(C(=O)SCC(Cl)=C(Cl)Cl)C(C)C: hepatic Clint 2.89 µL/min/10^6 cells. Listed for COc1ccc(C(c2ccc(OC)cc2)C(Cl)(Cl)Cl)cc1: hepatic Clint 12.5 µL/min/10^6 cells.

Listed for N#Cc1cccnc1: hepatic Clint 0 µL/min/10^6 cells. CCOC(=O)CC(SP(=S)(OC)OC)C(=O)OCC (stereo not given) has hepatic Clint 368 µL/min/10^6 cells. For C=C(C)[C@H]1Cc2c(ccc3c2O[C@@H]2COc4cc(OC)c(OC)cc4[C@@H]2C3=O)O1 the data give hepatic Clint 20.92 µL/min/10^6 cells. The entry for CC(=O)C[C@@H](c1ccccc1)C1C(=O)Oc2ccccc2C1O (stereo not given in full) lists hepatic Clint 0 µL/min/10^6 cells.

For Cc1ccccc1CO[C@H]1C[C@]2(C(C)C)CC[C@@]1(C)O2 the data give hepatic Clint 28.17 µL/min/10^6 cells. Listed for c1ccc(N=Nc2ccccc2)cc1: hepatic Clint 73.7 µL/min/10^6 cells. For Clc1ccccc1 the data give hepatic Clint 174.1 µL/min/10^6 cells. CCCCC(CC)COC(=O)c1ccccc1C(=O)OCC(CC)CCCC (stereo not given) is reported with hepatic Clint 2.65 µL/min/10^6 cells.

The entry for CCCCN(CC)c1c([N+](=O)[O-])cc(C(F)(F)F)cc1[N+](=O)[O-] lists hepatic Clint 17.34 µL/min/10^6 cells. The entry for Nc1ccc2ccccc2c1 lists hepatic Clint 18.5 µL/min/10^6 cells. CCCCN(CC)C(=O)SCCC has hepatic Clint 159 µL/min/10^6 cells. The entry for Clc1ccc(C(c2ccc(Cl)cc2)C(Cl)Cl)cc1 lists hepatic Clint 0 µL/min/10^6 cells.

Listed for OCCOc1ccccc1: hepatic Clint 17.89 µL/min/10^6 cells. Cc1ccccc1O has hepatic Clint 27.48 µL/min/10^6 cells. CCc1cccc(C)c1N(C(=O)CCl)C(C)COC (stereo not given) has hepatic Clint 35.37 µL/min/10^6 cells. The entry for Clc1cc(Cl)cc(-c2cc(Cl)cc(Cl)c2)c1 lists hepatic Clint 0 µL/min/10^6 cells.

Listed for ClC=C(Cl)Cl: hepatic Clint 2.174 µL/min/10^6 cells. CCC(C)c1ccc(O)cc1 (stereo not given) is reported with hepatic Clint 19.03 µL/min/10^6 cells. The entry for COc1cc(Cl)c(OC)cc1Cl lists hepatic Clint 6.31 µL/min/10^6 cells. For Clc1cccc(Cl)c1 the data give hepatic Clint 200 µL/min/10^6 cells.

For COP(=S)(OC)Oc1nc(Cl)c(Cl)cc1Cl the data give hepatic Clint 24.1 µL/min/10^6 cells. For O=Nc1ccc(Nc2ccccc2)cc1 the data give hepatic Clint 839 µL/min/10^6 cells. For CC(C)(C)c1cc(C(C)(C)C)c(O)c(C(C)(C)C)c1 the data give hepatic Clint 40.7 µL/min/10^6 cells. For O=[N+]([O-])c1ccc(Cl)c(Cl)c1 the data give hepatic Clint 387 µL/min/10^6 cells.

For CCOc1nc(NC)nc(NC(=O)NS(=O)(=O)c2ccccc2C(=O)OC)n1 the data give hepatic Clint 1.08 µL/min/10^6 cells. Listed for CCCCC1(CC)C(=O)NC(=O)NC1=O: hepatic Clint 1.9 µL/min/10^6 cells. For C1CC2OC2CC1C1CO1 (stereo not given) the data give hepatic Clint 136 µL/min/10^6 cells. For COc1cc(-c2ccc(N)c(OC)c2)ccc1N.Cl.Cl the data give hepatic Clint 7.635 µL/min/10^6 cells.

O.O=P1(N(CCCl)CCCl)NCCCO1 (stereo not given) has hepatic Clint 0 µL/min/10^6 cells. The entry for Clc1cc(Cl)c(-c2c(Cl)cc(Cl)cc2Cl)c(Cl)c1 lists hepatic Clint 0 µL/min/10^6 cells. Listed for Cc1cc(Cl)ccc1N: hepatic Clint 8.06 µL/min/10^6 cells. For O=C(O)COc1ccc(Cl)cc1Cl the data give hepatic Clint 0 µL/min/10^6 cells.

The entry for CON(C)C(=O)Nc1ccc(Cl)c(Cl)c1 lists hepatic Clint 33.05 µL/min/10^6 cells. CCCCN(CCCC)N=O has hepatic Clint 11.12 µL/min/10^6 cells. CCSC(=O)N(CC)C1CCCCC1 is reported with hepatic Clint 34.48 µL/min/10^6 cells. Nc1c(Cl)cc([N+](=O)[O-])cc1Cl is reported with hepatic Clint 4.43 µL/min/10^6 cells.

O=P(OC(CCl)CCl)(OC(CCl)CCl)OC(CCl)CCl is reported with hepatic Clint 5.092 µL/min/10^6 cells.